# Apparent affinities of Ab-14 variants for a coronavirus HR2 peptide

Data: MIT Lincoln Laboratory AlphaSeq set, Li et al. 2023, doi:10.1038/s41467-023-39022-2, as distributed in FLAb.

Target peptide (SARS-CoV-2 spike, HR2 region): PDVDLGDISGINAS

Each scFv is VH, a (GGGGS)3 linker, VL, as in the parent Ab-14, and differs from it in the CDRs of the heavy chain only.
VH: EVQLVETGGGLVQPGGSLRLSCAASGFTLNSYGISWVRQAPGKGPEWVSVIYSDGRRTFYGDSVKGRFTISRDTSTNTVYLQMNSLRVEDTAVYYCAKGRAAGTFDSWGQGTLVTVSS
VL: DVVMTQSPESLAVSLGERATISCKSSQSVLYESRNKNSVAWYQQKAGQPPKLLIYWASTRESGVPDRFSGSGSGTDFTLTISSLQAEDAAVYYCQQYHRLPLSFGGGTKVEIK

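This is the validation round: designs drawn from the data on random variants, tested in the same kind of assay. Group labels follow the data file (Ctrl: baseline library sampled from a position-specific scoring matrix, with some repeated check sequences; GP: Gaussian process model; GPLM: also part of the Gaussian process libraries; HC: hill climbing; Gen: genetic algorithm; a sequence that several methods proposed may carry one label only). The scFvs were displayed on barcoded MATa yeast, the peptide on MATalpha yeast. Pairs that bind mate more often; barcode pairs of the diploids are counted by sequencing. Read counts were normalised to the haploid input and turned into Kd by a linear fit to BCL2-family pairs of known affinity, for each replicate. Each pool was mated in six replicate cultures.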

Positions count from residue 1 of the parent VH; F27Y puts Y in place of F.
Numbers give log10(Kd / nM), so 0 is 1 nM and 3 is 1 µM. Smaller is tighter.
An entry "n.d." has no value in the source: the pair was not observed among the diploids in that replicate. This suggests poor binding but is not conclusive.
The authors averaged sequences with at least three values out of six and counted those with two or fewer as poor binders.

{"changes": "F27Y", "group": "Ctrl", "log10 Kd (nM) by replicate": "n.d. n.d. n.d. n.d. n.d. n.d.", "empty controls": "0 of 18"}
{"changes": "N30D+G61S+A101L", "group": "Ctrl+GP_HC", "log10 Kd (nM) by replicate": "0.37 -0.18 -0.03 -0.35 -0.23 -0.07; 0.42 0.87 0.11 0.28 0.60 0.88", "empty controls": "3 of 36 (2.45)"}
{"changes": "R56V+F59Y+G61A+S107L", "group": "Ctrl", "log10 Kd (nM) by replicate": "n.d. 0.42 n.d. 0.99 0.96 1.05", "empty controls": "0 of 18"}
{"changes": "F27E+A102E", "group": "Ctrl", "log10 Kd (nM) by replicate": "n.d. n.d. n.d. n.d. n.d. n.d.", "empty controls": "0 of 18"}
{"changes": "S31D+G61D+V64Y+A101T+S107W", "group": "Ctrl", "log10 Kd (nM) by replicate": "n.d. n.d. n.d. n.d. n.d. n.d.", "empty controls": "0 of 18"}
{"changes": "N30E+T58Q+G61T+R100Q", "group": "Ctrl", "log10 Kd (nM) by replicate": "n.d. 0.94 2.64 1.25 1.73 0.69", "empty controls": "0 of 18"}
{"changes": "N30L+G61S+R100Q", "group": "Ctrl", "log10 Kd (nM) by replicate": "n.d. n.d. n.d. n.d. n.d. n.d.", "empty controls": "0 of 18"}
{"changes": "T28D+S31D+R100D", "group": "Ctrl", "log10 Kd (nM) by replicate": "0.98 0.09 0.38 0.39 0.20 0.36", "empty controls": "0 of 18"}
{"changes": "R56I+T104R", "group": "Ctrl", "log10 Kd (nM) by replicate": "n.d. n.d. 1.77 n.d. n.d. 2.15", "empty controls": "0 of 18"}
{"changes": "S31E+T58D+D106P", "group": "Ctrl", "log10 Kd (nM) by replicate": "n.d. n.d. n.d. n.d. n.d. n.d.", "empty controls": "0 of 18"}
{"changes": "N30E+A102R+D106I", "group": "Ctrl", "log10 Kd (nM) by replicate": "n.d. n.d. n.d. n.d. n.d. n.d.", "empty controls": "0 of 18"}
{"changes": "T58V+R100D", "group": "Ctrl", "log10 Kd (nM) by replicate": "1.83 1.07 1.20 1.70 1.18 0.66", "empty controls": "2 of 18 (2.29)"}
{"changes": "T28S+S31L+A102Q", "group": "Ctrl", "log10 Kd (nM) by replicate": "n.d. n.d. n.d. n.d. n.d. n.d.", "empty controls": "1 of 18 (1.01)"}
{"changes": "T28N+A101W", "group": "Ctrl+GPLM_Gen", "log10 Kd (nM) by replicate": "1.20 1.31 1.44 n.d. 1.79 n.d.; 0.93 n.d. n.d. n.d. n.d. n.d.", "empty controls": "1 of 36 (1.29)"}
{"changes": "R100E+A102S+D106L", "group": "Ctrl", "log10 Kd (nM) by replicate": "n.d. n.d. n.d. n.d. n.d. n.d.", "empty controls": "0 of 18"}
{"changes": "G99I+A101N", "group": "Ctrl", "log10 Kd (nM) by replicate": "n.d. n.d. 3.29 n.d. n.d. n.d.", "empty controls": "2 of 18 (2.10)"}
{"changes": "D62G+S107T", "group": "Ctrl", "log10 Kd (nM) by replicate": "n.d. n.d. n.d. n.d. n.d. n.d.", "empty controls": "0 of 18"}
{"changes": "L29I+A102P", "group": "Ctrl", "log10 Kd (nM) by replicate": "n.d. n.d. n.d. n.d. n.d. n.d.", "empty controls": "1 of 18 (1.89)"}
{"changes": "S53A+A101N+A102T+D106L", "group": "Ctrl", "log10 Kd (nM) by replicate": "n.d. n.d. n.d. n.d. n.d. n.d.", "empty controls": "0 of 18"}
{"changes": "T28K+G61S", "group": "Ctrl", "log10 Kd (nM) by replicate": "1.52 1.05 1.79 0.75 1.60 1.35", "empty controls": "0 of 18"}
{"changes": "S31Q+S53A+K65E+G99R+A102M+S107Q", "group": "Ctrl", "log10 Kd (nM) by replicate": "n.d. 3.37 n.d. n.d. n.d. n.d.", "empty controls": "0 of 18"}
{"changes": "T28C+N30P+S31E+F59S+K65A", "group": "Ctrl", "log10 Kd (nM) by replicate": "n.d. n.d. n.d. n.d. n.d. n.d.", "empty controls": "0 of 18"}
{"changes": "N30D+S63N+K65V+A101K+G103K+F105I", "group": "Ctrl", "log10 Kd (nM) by replicate": "n.d. n.d. n.d. n.d. n.d. n.d.", "empty controls": "0 of 18"}

Where one sequence has several entries in the source, the replicates are listed entry by entry, parted by semicolons.
A sequence measured in both rounds can read differently, since the two assays cover different ranges.
Empty control strains, which show no peptide, gave a signal in 1% of pairings with all heavy chain designs; the median was 2.08 and 95% of these signals were weaker than 0.84. No background was subtracted. Also given: how often the same scFv was detected with the empty control strains, with their mean in brackets.
The parent sequence was in this pool as ten entries: three were never detected, three once, and four in most replicates, with averages from 0.34 to 2.37.